# US20110269811A1, “INHIBITORS OF SEMICARBAZIDE-SENSITIVE AMINE OXIDASE (SSAO) AND VAP-1 MEDIATED ADHESION USEFUL FOR TREATMENT AND PREVENTION OF DISEASES” (priority 2006, published 2011)
# The chains behind the UniProt entries cited, without tags or fusion partners.
# UniProt P21397, whole entry: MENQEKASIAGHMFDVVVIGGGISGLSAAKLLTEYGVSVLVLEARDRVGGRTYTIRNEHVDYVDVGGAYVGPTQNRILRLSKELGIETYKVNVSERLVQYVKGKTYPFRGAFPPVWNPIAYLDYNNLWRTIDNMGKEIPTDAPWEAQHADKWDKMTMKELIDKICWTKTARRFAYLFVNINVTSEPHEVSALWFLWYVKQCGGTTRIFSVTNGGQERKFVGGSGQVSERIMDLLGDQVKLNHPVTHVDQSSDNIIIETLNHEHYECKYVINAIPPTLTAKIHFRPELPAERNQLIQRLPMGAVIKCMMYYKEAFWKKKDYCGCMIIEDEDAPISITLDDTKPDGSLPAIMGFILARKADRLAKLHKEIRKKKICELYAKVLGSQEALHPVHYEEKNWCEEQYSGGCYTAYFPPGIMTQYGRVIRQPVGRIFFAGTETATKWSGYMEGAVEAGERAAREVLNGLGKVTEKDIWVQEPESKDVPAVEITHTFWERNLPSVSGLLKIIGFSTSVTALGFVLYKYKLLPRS
# UniProt Q16853, whole entry: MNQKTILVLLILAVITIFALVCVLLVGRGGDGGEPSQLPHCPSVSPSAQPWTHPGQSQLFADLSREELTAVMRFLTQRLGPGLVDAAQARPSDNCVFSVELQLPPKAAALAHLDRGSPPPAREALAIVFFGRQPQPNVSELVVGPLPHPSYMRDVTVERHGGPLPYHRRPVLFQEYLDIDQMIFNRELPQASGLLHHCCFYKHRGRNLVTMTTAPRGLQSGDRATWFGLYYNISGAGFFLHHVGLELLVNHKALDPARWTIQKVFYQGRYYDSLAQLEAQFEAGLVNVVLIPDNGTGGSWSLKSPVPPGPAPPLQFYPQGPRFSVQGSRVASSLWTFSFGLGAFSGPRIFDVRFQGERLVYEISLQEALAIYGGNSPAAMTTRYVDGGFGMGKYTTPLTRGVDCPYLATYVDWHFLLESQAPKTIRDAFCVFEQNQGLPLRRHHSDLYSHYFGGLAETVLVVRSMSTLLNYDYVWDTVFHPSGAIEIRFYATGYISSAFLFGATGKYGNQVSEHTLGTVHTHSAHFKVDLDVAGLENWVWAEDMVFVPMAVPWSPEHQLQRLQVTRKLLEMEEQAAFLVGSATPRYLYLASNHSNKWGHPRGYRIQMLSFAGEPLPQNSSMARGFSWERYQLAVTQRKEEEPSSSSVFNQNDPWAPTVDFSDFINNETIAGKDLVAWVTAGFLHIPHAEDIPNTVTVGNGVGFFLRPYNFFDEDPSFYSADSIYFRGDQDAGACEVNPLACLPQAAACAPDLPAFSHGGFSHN
# UniProt P27338, whole entry: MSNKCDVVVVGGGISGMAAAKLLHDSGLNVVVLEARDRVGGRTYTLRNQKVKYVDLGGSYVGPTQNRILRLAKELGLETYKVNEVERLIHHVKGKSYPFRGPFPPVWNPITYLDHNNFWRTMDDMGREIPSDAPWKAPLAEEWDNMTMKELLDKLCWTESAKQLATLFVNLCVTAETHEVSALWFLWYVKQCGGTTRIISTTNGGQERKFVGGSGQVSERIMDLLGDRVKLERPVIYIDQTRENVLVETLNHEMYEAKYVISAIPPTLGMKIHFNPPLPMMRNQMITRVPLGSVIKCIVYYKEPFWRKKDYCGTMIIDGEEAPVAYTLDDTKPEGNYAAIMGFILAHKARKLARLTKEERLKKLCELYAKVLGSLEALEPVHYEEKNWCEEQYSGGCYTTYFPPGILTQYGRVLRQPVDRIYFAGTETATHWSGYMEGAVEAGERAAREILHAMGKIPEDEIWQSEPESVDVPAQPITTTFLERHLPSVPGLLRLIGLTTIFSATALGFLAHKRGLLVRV
# Legend:
# Recombinant human MAO-A = Recombinant human MAO-A (Homo sapiens, UniProt P21397); assay: MAO-A activity, colorimetric method, tyramine substrate; assay type: biochemical; conditions: tested form: HCl
# Protocol: The specificities of the different SSAO inhibitors was tested by determining their abilities to inhibit MAO-A and MAO-B activities in vitro. Recombinant human MAO-A and human MAO-B enzymes were obtained from BD Biosciences (MA, USA). MAO activity was measured using the colorimetric method essentially as described (Holt, A. et al. (1997) Anal. Biochem. 244: 384). A pre-determined amount of inhibitor diluted in 0.2M potassium phosphate buffer, pH 7.6, was added to each well, if required. The amount of inhibitor varied in each assay but was generally at a final concentration of between 1 nM and 1 mM. Controls lacked inhibitor. The following agents were then added to a final reaction volume of 200 μL in 0.2M potassium phosphate buffer, pH 7.6: 0.04 mg/ml of MAO-A or 0.07 mg/ml MAO-B enzyme, 15 μL of 10 mM tyramine substrate (for MAO-A), or 15 μL 100 mM benzylamine substrate (for MAO-B), and 50 μL of freshly made chromogenic solution. […] The increase in absorbance, reflecting MAO activity, was measured at 490 nm using microplate spectrophotometer (Power Wave 40, Bio-Tek Inst.). Inhibition was presented as percent inhibition compared to control after correcting for background absorbance and IC50 values calculated using GraphPad Prism software. […]
# Human SSAO = Human SSAO (Homo sapiens, UniProt Q16853); assay: In vitro inhibition of SSAO activity, human umbilical cord homogenate, 14C-benzylamine; conditions: read-out: Human SSAO IC50, tested form: HCl
# human MAO-B = human MAO-B (Homo sapiens, UniProt P27338); assay: MAO-B activity, colorimetric method, benzylamine substrate; assay type: biochemical; conditions: tested form: HCl
smiles,measurement,setting,value
"COc1cccc(OC/C=C(/F)CN)c1 [II-19-E, (E)-2-fluoro-4-(3-methoxyphenoxy)but-2-en-1-amine]",Specificity of SSAO on MAO-A,Recombinant human MAO-A; ratio of IC50 for MAO-A to IC50 for SSAO,>1333
same,IC50,"Recombinant human MAO-A; read-out: Human MAO-A IC50, recombinant human MAO-A",> 1000 µM
same,IC50,Human SSAO,0.75 µM
same,Specificity of SSAO on MAO-B,human MAO-B; ratio of IC50 for MAO-B to IC50 for SSAO,1333
same,IC50,"human MAO-B; read-out: Human MAO-B IC50, recombinant human MAO-B",1000 µM
